# CycPeptMPDB entries from one study

Data: CycPeptMPDB; original report Kelly et al. 2021, doi:10.1021/jacs.0c06115.

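The data file gives no further conditions (lipid, pH, time, direction or concentration), and values from different papers need not be comparable. Other peptides of the study may be missing here. Entries at the database's floor value (log10 P of -10) are not listed.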

PAMPA is the parallel artificial membrane permeability assay, which has no cells and reads passive diffusion. Permeability is in 10^-6 cm/s, converted from the database's log10 values; higher is more permeable.

{"smiles": "CC(=O)N1CCC[C@H]1C(=O)N[C@@H]1C(=O)N[C@H](CC(C)C)C(=O)N[C@@H](CC(C)C)C(=O)N[C@@H](CC(C)C)C(=O)N(C)[C@H](CC(C)C)C(=O)N[C@H](C)C(=O)N[C@@H](CC(C)C)C(=O)N2CCC[C@@H]2C(=O)O[C@@H]1C", "PAMPA (10^-6 cm/s)": "0.5"}
{"smiles": "CC(=O)N1CCC[C@H]1C(=O)N(C)[C@@H](CC(C)C)C(=O)N[C@@H]1C(=O)N(C)[C@H](CC(C)C)C(=O)N(C)[C@@H](CC(C)C)C(=O)N[C@@H](CC(C)C)C(=O)N[C@@H](C)C(=O)N[C@H](CC(C)C)C(=O)N2CCC[C@@H]2C(=O)O[C@@H]1C", "PAMPA (10^-6 cm/s)": "1"}
{"smiles": "CC(=O)N1CCC[C@H]1C(=O)N(C)[C@H](CC(C)C)C(=O)N[C@@H]1C(=O)N[C@H](CC(C)C)C(=O)N[C@H](CC(C)C)C(=O)N(C)[C@@H](CC(C)C)C(=O)N(C)[C@@H](C)C(=O)N[C@@H](CC(C)C)C(=O)N2CCC[C@@H]2C(=O)O[C@@H]1C", "PAMPA (10^-6 cm/s)": "6.8"}
{"smiles": "CC(=O)N1CCC[C@H]1C(=O)N[C@@H]1C(=O)N(C)[C@H](CC(C)C)C(=O)N(C)[C@@H](CC(C)C)C(=O)N(C)[C@@H](CC(C)C)C(=O)N(C)[C@@H](CC(C)C)C(=O)N(C)[C@H](C)C(=O)N[C@@H](CC(C)C)C(=O)N2CCC[C@@H]2C(=O)O[C@@H]1C", "PAMPA (10^-6 cm/s)": "8.1"}
{"smiles": "CC(=O)N1CCC[C@H]1C(=O)N[C@@H]1C(=O)N(C)[C@H](CC(C)C)C(=O)N[C@@H](CC(C)C)C(=O)N[C@H](CC(C)C)C(=O)N[C@@H](CC(C)C)C(=O)N(C)[C@H](C)C(=O)N[C@@H](CC(C)C)C(=O)N2CCC[C@@H]2C(=O)O[C@@H]1C", "PAMPA (10^-6 cm/s)": "0.93"}
{"smiles": "CC(=O)N1CCC[C@H]1C(=O)N[C@@H]1C(=O)N[C@H](CC(C)C)C(=O)N[C@H](CC(C)C)C(=O)N[C@@H](CC(C)C)C(=O)N[C@H](CC(C)C)C(=O)N(C)[C@H](C)C(=O)N[C@@H](CC(C)C)C(=O)N2CCC[C@@H]2C(=O)O[C@@H]1C", "PAMPA (10^-6 cm/s)": "2.3"}
{"smiles": "CC(=O)N1CCC[C@H]1C(=O)N[C@@H]1C(=O)N[C@H](CC(C)C)C(=O)N[C@@H](CC(C)C)C(=O)N[C@@H](CC(C)C)C(=O)N[C@@H](CC(C)C)C(=O)N(C)[C@H](C)C(=O)N[C@@H](CC(C)C)C(=O)N2CCC[C@@H]2C(=O)O[C@@H]1C", "PAMPA (10^-6 cm/s)": "0.083"}
{"smiles": "CC(=O)N1CCC[C@H]1C(=O)N(C)[C@H](CC(C)C)C(=O)N[C@@H]1C(=O)N(C)[C@H](CC(C)C)C(=O)N[C@H](CC(C)C)C(=O)N[C@H](CC(C)C)C(=O)N[C@H](C)C(=O)N[C@@H](CC(C)C)C(=O)N2CCC[C@H]2C(=O)O[C@@H]1C", "PAMPA (10^-6 cm/s)": "1.4"}
{"smiles": "CC(=O)N1CCC[C@@H]1C(=O)N(C)[C@@H](CC(C)C)C(=O)N[C@@H]1C(=O)N[C@H](CC(C)C)C(=O)N(C)[C@H](CC(C)C)C(=O)N[C@@H](CC(C)C)C(=O)N[C@@H](C)C(=O)N[C@@H](CC(C)C)C(=O)N2CCC[C@@H]2C(=O)O[C@@H]1C", "PAMPA (10^-6 cm/s)": "1.2"}
{"smiles": "CC(=O)N1CCC[C@@H]1C(=O)N(C)[C@@H](CC(C)C)C(=O)N[C@@H]1C(=O)N[C@@H](CC(C)C)C(=O)N[C@@H](CC(C)C)C(=O)N[C@@H](CC(C)C)C(=O)N[C@@H](C)C(=O)N[C@H](CC(C)C)C(=O)N2CCC[C@H]2C(=O)O[C@@H]1C", "PAMPA (10^-6 cm/s)": "0.14"}
{"smiles": "CC(=O)N1CCC[C@H]1C(=O)N(C)[C@@H](CC(C)C)C(=O)N[C@@H]1C(=O)N(C)[C@H](CC(C)C)C(=O)N(C)[C@H](CC(C)C)C(=O)N[C@@H](CC(C)C)C(=O)N(C)[C@H](C)C(=O)N[C@H](CC(C)C)C(=O)N2CCC[C@H]2C(=O)O[C@@H]1C", "PAMPA (10^-6 cm/s)": "6.6"}
{"smiles": "CC(=O)N1CCC[C@H]1C(=O)N(C)[C@@H](CC(C)C)C(=O)N[C@@H]1C(=O)N[C@H](CC(C)C)C(=O)N[C@@H](CC(C)C)C(=O)N(C)[C@H](CC(C)C)C(=O)N(C)[C@@H](C)C(=O)N[C@@H](CC(C)C)C(=O)N2CCC[C@@H]2C(=O)O[C@@H]1C", "PAMPA (10^-6 cm/s)": "5.8"}

Extract of 2 entries:

{"smiles": "CC(=O)N1CCC[C@@H]1C(=O)N(C)[C@@H](CC(C)C)C(=O)N[C@@H]1C(=O)N[C@@H](CC(C)C)C(=O)N[C@@H](CC(C)C)C(=O)N[C@@H](CC(C)C)C(=O)N[C@@H](C)C(=O)N[C@H](CC(C)C)C(=O)N2CCC[C@H]2C(=O)O[C@@H]1C", "PAMPA (10^-6 cm/s)": "0.14"}
{"smiles": "CC(=O)N1CCC[C@H]1C(=O)N(C)[C@H](CC(C)C)C(=O)N[C@@H]1C(=O)N(C)[C@H](CC(C)C)C(=O)N[C@H](CC(C)C)C(=O)N[C@H](CC(C)C)C(=O)N[C@H](C)C(=O)N[C@@H](CC(C)C)C(=O)N2CCC[C@H]2C(=O)O[C@@H]1C", "PAMPA (10^-6 cm/s)": "1.4"}